Consider 4 molecules from patent publication US9266814B2, “Use of nitrooxy organic molecules in feed for reducing methane emission in ruminants, and/or to improve ruminant performance” (DSM IP ASSETS B.V., priority 2010, dated 2016).

In the test the test system is methanogenesis in rumen liquor. Briefly: In vitro test for methane production (modified Hohenheim Forage value Test). Format: cell-based. The note with it: reduction in methane vs control, 8 hours at 39° C., average of two experiments.

Only a part of the results on these compounds is given; other tests are left out.

For the molecule `O=[N+]([O-])OCCCCCO[N+](=O)[O-]`, the “effect on methanogenesis (%)” value (0.05% DM) came out at 100%.
Consider `O=[N+]([O-])OCCCO[N+](=O)[O-]`, for which the “effect on methanogenesis (%)” value by setting is: (0.005% DM) 29%; (0.01% DM) 98%; (0.05% DM) 100%; (0.1% DM) 99%.
Turning to `O=[N+]([O-])OCCOCCO[N+](=O)[O-]`, the “effect on methanogenesis (%)” value is 3% (0.005% DM), 64% (0.01% DM), 99% (0.05% DM) and 100% (0.1% DM).
The like results for `O=[N+]([O-])OCCCCO[N+](=O)[O-]` were, in that order, 16%, 92%, 100% and 100%.
